Consider one molecule from patent publication US5786517A, “Metal-ligand complex catalyzed processes” (Union Carbide Chemicals & Plastics Technology Corporation, priority 1996, dated 1998).

The data set can be described thus: Stability of Ligand F in rhodium-containing butyraldehyde solution by HPLC (Examples 2-4). Particulars: after either 24 or 72 hours; 0.018 grams phosphorous acid and 0.0337 grams benzimidazole added.

Regarding `CC(C)(C)c1cc(-c2cc(C(C)(C)C)cc(C(C)(C)C)c2Op2oc3ccccc3c3ccccc3o2)c(Op2oc3ccccc3c3ccccc3o2)c(C(C)(C)C)c1` [Ligand F], the “decomposition of Ligand F” value was “No decomposition”.
